Chains of the proteins cited; added tags and fusions are not shown. Lines headed by an entry give the natural chain unless they say otherwise; changes in a name come on top. Residues count along the entry.
UniProt P06401: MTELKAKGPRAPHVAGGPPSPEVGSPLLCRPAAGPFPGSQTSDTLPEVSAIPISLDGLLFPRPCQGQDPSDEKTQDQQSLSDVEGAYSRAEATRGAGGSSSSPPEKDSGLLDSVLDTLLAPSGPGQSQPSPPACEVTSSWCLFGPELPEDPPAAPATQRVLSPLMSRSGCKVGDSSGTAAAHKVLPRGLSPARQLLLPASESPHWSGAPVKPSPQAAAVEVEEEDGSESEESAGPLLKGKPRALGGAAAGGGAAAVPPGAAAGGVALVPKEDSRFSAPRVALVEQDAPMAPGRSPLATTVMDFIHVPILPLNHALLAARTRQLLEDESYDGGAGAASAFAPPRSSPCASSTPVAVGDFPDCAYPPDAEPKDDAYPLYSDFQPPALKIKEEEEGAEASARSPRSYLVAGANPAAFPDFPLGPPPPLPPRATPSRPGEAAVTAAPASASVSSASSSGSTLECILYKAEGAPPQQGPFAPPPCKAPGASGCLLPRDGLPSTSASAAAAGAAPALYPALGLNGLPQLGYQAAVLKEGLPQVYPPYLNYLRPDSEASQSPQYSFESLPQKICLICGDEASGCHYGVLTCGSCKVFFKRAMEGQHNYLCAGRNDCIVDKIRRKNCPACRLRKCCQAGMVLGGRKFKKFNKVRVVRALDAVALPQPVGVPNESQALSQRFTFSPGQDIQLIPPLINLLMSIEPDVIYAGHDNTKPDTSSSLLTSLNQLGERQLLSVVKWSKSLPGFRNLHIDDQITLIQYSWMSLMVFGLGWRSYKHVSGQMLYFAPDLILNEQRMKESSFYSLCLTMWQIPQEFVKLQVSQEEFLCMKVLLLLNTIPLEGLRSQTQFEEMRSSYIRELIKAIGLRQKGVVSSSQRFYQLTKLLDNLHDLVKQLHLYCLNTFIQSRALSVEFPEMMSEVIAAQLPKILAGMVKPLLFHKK
UniProt P43403: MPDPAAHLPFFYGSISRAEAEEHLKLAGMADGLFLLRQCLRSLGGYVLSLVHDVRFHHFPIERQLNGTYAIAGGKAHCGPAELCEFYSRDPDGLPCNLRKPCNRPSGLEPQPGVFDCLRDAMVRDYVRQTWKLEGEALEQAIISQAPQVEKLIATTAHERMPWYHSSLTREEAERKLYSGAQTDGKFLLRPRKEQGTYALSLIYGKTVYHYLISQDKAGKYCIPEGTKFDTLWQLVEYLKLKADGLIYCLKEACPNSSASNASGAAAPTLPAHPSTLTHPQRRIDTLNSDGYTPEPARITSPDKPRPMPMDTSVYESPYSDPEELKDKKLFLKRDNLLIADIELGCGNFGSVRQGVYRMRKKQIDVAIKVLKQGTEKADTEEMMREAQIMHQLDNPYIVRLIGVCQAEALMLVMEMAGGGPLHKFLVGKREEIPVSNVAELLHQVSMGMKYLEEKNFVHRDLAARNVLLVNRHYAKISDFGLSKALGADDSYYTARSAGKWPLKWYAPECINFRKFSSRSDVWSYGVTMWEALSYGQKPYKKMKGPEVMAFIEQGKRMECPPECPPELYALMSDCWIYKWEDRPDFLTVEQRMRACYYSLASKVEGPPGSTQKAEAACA
UniProt Q9HC98: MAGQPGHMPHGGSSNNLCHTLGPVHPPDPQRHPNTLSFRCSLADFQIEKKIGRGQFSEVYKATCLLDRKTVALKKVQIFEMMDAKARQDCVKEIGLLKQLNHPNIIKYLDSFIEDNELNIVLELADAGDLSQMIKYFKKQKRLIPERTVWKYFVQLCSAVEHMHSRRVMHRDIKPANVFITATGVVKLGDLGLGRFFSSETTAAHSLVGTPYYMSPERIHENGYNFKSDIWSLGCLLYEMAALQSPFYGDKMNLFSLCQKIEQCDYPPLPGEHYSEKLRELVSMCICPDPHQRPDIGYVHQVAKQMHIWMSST
UniProt Q15208: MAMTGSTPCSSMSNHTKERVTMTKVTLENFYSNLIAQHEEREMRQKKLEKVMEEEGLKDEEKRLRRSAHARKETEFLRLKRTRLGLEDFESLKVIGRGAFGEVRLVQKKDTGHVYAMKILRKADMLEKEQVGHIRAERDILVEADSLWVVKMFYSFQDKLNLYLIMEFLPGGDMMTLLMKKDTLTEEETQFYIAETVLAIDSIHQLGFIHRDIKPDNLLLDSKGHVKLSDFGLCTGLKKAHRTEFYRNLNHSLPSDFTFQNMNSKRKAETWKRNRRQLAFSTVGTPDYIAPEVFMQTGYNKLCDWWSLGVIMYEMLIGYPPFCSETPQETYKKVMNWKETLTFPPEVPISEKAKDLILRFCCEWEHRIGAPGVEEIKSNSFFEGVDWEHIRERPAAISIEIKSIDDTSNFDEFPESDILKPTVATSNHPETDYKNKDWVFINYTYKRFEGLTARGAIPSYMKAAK
UniProt P54760, 16-987: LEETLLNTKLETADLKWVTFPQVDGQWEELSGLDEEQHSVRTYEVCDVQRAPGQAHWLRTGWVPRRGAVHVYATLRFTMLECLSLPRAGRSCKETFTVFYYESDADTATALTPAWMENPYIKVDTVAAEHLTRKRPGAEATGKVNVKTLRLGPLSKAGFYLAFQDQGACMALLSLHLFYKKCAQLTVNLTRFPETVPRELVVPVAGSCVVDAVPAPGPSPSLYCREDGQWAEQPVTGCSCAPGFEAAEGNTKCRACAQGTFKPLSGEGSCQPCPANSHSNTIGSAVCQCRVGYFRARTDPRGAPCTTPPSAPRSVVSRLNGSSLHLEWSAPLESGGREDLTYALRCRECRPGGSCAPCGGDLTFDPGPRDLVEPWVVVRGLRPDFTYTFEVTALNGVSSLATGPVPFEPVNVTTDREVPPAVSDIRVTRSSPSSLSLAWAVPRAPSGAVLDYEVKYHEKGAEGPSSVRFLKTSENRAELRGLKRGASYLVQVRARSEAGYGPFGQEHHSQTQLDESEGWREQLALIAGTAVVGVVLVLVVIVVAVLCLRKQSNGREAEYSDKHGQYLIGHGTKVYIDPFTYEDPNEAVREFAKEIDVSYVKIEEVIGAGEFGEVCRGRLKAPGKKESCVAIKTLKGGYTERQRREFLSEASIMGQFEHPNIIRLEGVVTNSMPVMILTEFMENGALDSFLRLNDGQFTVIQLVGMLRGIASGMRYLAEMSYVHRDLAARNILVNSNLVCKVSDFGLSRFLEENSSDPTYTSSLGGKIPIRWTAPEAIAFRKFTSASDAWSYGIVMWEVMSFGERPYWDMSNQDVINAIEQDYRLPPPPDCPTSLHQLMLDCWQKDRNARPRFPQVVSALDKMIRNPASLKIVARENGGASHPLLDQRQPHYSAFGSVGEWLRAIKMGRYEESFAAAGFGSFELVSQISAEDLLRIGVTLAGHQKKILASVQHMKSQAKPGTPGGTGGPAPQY
UniProt Q9Y3S1: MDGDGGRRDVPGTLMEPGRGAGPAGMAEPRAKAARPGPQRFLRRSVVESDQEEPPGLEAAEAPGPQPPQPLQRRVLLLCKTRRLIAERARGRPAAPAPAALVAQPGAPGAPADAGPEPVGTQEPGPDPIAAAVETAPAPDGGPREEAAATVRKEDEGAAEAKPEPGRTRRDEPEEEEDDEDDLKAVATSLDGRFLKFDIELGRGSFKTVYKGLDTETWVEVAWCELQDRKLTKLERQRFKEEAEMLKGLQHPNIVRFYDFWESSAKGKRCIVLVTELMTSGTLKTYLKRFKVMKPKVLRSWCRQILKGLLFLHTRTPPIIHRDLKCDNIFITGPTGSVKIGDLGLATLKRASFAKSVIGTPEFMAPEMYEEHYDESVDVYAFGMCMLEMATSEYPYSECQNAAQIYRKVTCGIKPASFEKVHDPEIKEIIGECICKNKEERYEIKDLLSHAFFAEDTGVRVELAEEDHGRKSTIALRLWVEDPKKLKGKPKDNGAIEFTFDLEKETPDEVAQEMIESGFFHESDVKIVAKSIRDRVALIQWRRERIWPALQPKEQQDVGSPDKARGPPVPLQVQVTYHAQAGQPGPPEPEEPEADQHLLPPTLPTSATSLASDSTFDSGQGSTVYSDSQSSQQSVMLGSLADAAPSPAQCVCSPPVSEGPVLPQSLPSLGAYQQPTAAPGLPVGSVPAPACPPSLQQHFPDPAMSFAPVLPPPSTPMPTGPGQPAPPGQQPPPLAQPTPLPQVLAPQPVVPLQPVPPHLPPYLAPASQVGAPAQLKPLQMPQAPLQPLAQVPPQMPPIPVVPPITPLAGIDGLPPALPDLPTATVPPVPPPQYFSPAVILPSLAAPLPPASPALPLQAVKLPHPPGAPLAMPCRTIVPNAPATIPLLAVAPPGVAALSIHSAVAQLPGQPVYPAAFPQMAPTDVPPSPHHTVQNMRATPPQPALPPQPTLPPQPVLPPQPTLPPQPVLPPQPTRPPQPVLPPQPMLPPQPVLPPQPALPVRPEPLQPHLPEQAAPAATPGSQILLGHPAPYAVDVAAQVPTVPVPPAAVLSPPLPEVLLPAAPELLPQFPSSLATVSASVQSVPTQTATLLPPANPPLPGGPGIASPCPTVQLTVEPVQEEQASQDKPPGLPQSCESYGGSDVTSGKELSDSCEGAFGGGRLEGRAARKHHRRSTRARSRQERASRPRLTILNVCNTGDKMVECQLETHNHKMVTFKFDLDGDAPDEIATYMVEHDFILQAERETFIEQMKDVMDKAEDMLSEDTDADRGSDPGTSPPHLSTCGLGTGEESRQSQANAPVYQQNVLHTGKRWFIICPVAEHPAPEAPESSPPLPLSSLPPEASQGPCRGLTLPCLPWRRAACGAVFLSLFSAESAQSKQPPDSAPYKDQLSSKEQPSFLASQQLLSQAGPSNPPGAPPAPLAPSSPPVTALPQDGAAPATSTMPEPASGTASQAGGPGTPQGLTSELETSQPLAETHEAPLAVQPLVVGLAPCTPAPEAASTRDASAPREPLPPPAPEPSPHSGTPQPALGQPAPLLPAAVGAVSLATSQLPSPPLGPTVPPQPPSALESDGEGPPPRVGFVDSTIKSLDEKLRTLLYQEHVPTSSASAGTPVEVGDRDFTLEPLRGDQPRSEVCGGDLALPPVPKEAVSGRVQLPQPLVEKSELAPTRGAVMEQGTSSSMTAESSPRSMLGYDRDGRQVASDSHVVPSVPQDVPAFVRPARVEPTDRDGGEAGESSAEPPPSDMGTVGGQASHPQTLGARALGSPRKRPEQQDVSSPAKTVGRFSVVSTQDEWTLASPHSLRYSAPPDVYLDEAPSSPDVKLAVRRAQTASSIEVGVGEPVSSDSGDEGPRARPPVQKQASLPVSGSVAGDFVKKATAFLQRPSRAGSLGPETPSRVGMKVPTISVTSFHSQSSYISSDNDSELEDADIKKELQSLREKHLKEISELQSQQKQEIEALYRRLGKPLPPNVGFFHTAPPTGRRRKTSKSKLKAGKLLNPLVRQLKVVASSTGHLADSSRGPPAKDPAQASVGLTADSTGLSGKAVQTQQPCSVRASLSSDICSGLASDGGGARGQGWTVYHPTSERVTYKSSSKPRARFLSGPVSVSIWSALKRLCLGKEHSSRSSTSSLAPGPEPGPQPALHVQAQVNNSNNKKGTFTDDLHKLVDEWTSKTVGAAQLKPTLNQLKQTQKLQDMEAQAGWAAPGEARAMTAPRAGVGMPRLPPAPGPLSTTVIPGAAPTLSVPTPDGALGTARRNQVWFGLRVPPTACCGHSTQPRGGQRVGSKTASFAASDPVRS
UniProt P30291: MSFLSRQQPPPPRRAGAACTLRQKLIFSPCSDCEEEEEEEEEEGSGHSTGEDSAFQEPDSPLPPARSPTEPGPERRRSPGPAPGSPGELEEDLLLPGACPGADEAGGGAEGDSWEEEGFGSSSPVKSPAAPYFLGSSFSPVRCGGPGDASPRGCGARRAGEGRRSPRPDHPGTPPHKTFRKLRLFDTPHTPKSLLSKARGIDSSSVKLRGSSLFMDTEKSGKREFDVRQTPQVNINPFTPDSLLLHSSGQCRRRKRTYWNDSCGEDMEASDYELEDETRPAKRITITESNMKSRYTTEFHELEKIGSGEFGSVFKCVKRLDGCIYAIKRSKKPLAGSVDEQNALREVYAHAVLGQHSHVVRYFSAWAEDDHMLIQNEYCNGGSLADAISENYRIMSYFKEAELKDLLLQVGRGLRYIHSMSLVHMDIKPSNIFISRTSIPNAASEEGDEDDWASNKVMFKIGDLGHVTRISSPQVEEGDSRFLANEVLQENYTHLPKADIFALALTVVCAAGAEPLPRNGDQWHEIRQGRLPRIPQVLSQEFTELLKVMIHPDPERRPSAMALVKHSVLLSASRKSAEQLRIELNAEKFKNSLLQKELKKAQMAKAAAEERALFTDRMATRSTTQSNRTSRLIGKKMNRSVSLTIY

According to PMC10009755, “Discovery and Characterization of BAY-805, a Potent and Selective Inhibitor of Ubiquitin-Specific Protease USP21” (Journal of Medicinal Chemistry, 2023):

What was measured:
EphA1(h) = EphA1(h) (Homo sapiens, UniProt P21709); assay: biochemical
Estrogen Erα = Estrogen Erα (Homo sapiens, UniProt P03372); assay: biochemical; details: read-out: % Inh.
SBK1(h) = SBK1(h) (Homo sapiens, UniProt Q52WX2); assay: biochemical
[1] = system: GABAA, Chloride Channel, TBOB; details: 10 µM
Flt3(h) = Flt3(h) (Homo sapiens, UniProt P36888); assay: biochemical
mTOR FKBP12(h) = mTOR FKBP12(h) (Homo sapiens, UniProt P42345); assay: biochemical
Progesterone PR-B = Progesterone PR-B (Homo sapiens, UniProt P06401); assay: biochemical; details: read-out: % Inh.
HIPK3(h) = HIPK3(h) (Homo sapiens, UniProt Q9H422); assay: biochemical
ZAP-70(h) = ZAP-70(h) (Homo sapiens, UniProt P43403); assay: biochemical
CDK5/p25(h) = CDK5/p25(h) (Homo sapiens, UniProt Q00535); assay: biochemical
DCAMKL1(h) = DCAMKL1(h) (Homo sapiens, UniProt O15075); assay: biochemical
NEK6(h) = NEK6(h) (Homo sapiens, UniProt Q9HC98); assay: biochemical
MYO3B(h) = MYO3B(h) (Homo sapiens, UniProt Q8WXR4); assay: biochemical
IRAK4(h) = IRAK4(h) (Homo sapiens, UniProt Q9NWZ3); assay: biochemical
Lck(h) activated = Lck(h) activated (Homo sapiens, UniProt P06239); assay: biochemical
Endothelin ETB = Endothelin ETB (Homo sapiens, UniProt P24530); assay: biochemical; details: read-out: % Inh.
FGFR4(h) = FGFR4(h) (Homo sapiens, UniProt P22455); assay: biochemical
NUAK2(h) = NUAK2(h) (Homo sapiens, UniProt Q9H093); assay: biochemical
Cezanne = Cezanne (Homo sapiens, UniProt Q6GQQ9); assay: biochemical; details: read-out: Activity (% Control)
Fer(h) = Fer(h) (Homo sapiens, UniProt P16591); assay: biochemical
IKKepsilon(h) = IKKepsilon(h) (Homo sapiens, UniProt Q14164); assay: biochemical
STK32B(h) = STK32B(h) (Homo sapiens, UniProt Q9NY57); assay: biochemical
CDK6/cyclinD3(h) = CDK6/cyclinD3(h) (Homo sapiens, UniProt Q00534); assay: biochemical
[2] = molecular target: Transporter, Norepinephrine (NET) (Homo sapiens, UniProt P23975); assay: biochemical; details: read-out: % Inh.
CDK1/cyclinB(h) = CDK1/cyclinB(h) (Homo sapiens, UniProt P06493); assay: biochemical
ULK1(h) = ULK1(h) (Homo sapiens, UniProt O75385); assay: biochemical
NDR1(h) = NDR1(h) (Homo sapiens, UniProt Q15208); assay: biochemical
MAP4K3(h) = MAP4K3(h) (Homo sapiens, UniProt Q8IVH8); assay: biochemical
Phosphodiesterase PDE5 = Phosphodiesterase PDE5 (Homo sapiens, UniProt O76074); assay: biochemical; details: read-out: % Inh.
EphB4(h) = EphB4(h) (Homo sapiens, UniProt P54760); assay: biochemical
PDHK4(h) = PDHK4(h) (Homo sapiens, UniProt Q16654); assay: biochemical
UCHL3 = UCHL3 (Homo sapiens, UniProt P15374); assay: biochemical; details: read-out: Activity (% Control)
CK2alpha1(h) = CK2alpha1(h) (Homo sapiens, UniProt P68400); assay: biochemical
Pim-3(h) = Pim-3(h) (Homo sapiens, UniProt Q86V86); assay: biochemical
SLK(h) = SLK(h) (Homo sapiens, UniProt Q9H2G2); assay: biochemical
DCAMKL3(h) = DCAMKL3(h) (Homo sapiens, UniProt Q9C098); assay: biochemical
TSSK1(h) = TSSK1(h) (Homo sapiens, UniProt Q9BXA7); assay: biochemical
WNK2(h) = WNK2(h) (Homo sapiens, UniProt Q9Y3S1); assay: biochemical
MARK3(h) = MARK3(h) (Homo sapiens, UniProt P27448); assay: biochemical
WEE1(h) = WEE1(h) (Homo sapiens, UniProt P30291); assay: biochemical
GRK3(h) = GRK3(h) (Homo sapiens, UniProt P35626); assay: biochemical
PKR(h) = PKR(h) (Homo sapiens, UniProt P19525); assay: biochemical

SMILES: CC(C)C[C@H](NC(=O)C1(C(F)(F)F)CCCCC1)C(=O)Nc1nnc(Cc2ccc(C#N)cc2)s1 [Compound 22, CC(C)C[C@H](NC(=O)C1(CCCCC1)C(F)(F)F)C(=O)Nc2nnc(Cc3ccc(cc3)C#N)s2]
- inhibition at 10 µM (EphA1(h)): -8.87%
- inhibition at 10 µM (Estrogen Erα): -15%
- inhibition at 10 µM (SBK1(h)): 9.66%
- % Inh. [1]: 14%
- inhibition at 10 µM (Flt3(h)): 8.17%
- inhibition at 10 µM (mTOR FKBP12(h)): 3%
- inhibition at 10 µM (Progesterone PR-B): 16%
- inhibition at 10 µM (HIPK3(h)): -2.65%
- inhibition at 10 µM (ZAP-70(h)): -15.3%
- inhibition at 10 µM (CDK5/p25(h)): 1.49%
- inhibition at 10 µM (DCAMKL1(h)): -0.87%
- inhibition at 10 µM (NEK6(h)): -8.5%
- inhibition at 10 µM (MYO3B(h)): 3.59%
- inhibition at 10 µM (IRAK4(h)): -10.4%
- inhibition at 10 µM (Lck(h) activated): 3.42%
- inhibition at 10 µM (Endothelin ETB): 29%
- inhibition at 10 µM (FGFR4(h)): -10.5%
- inhibition at 10 µM (NUAK2(h)): 17.9%
- remaining activity at 1 µM (Cezanne): 104%
- remaining activity at 10 µM (Cezanne): 93%
- inhibition at 10 µM (Fer(h)): 0.43%
- inhibition at 10 µM (IKKepsilon(h)): -10.6%
- inhibition at 10 µM (STK32B(h)): 10.7%
- inhibition at 10 µM (CDK6/cyclinD3(h)): -16.8%
- inhibition at 10 µM [2]: 37%
- inhibition at 10 µM (CDK1/cyclinB(h)): -0.33%
- inhibition at 10 µM (ULK1(h)): -0.03%
- inhibition at 10 µM (NDR1(h)): 3.89%
- inhibition at 10 µM (MAP4K3(h)): -1.13%
- inhibition at 10 µM (Phosphodiesterase PDE5): 27%
- inhibition at 10 µM (EphB4(h)): -37.8%
- inhibition at 10 µM (PDHK4(h)): -5.39%
- remaining activity at 1 µM (UCHL3): 105%
- remaining activity at 10 µM (UCHL3): 106%
- inhibition at 10 µM (CK2alpha1(h)): 4.27%
- inhibition at 10 µM (Pim-3(h)): 5.7%
- inhibition at 10 µM (SLK(h)): 1.74%
- inhibition at 10 µM (DCAMKL3(h)): 4.5%
- inhibition at 10 µM (TSSK1(h)): 5.25%
- inhibition at 10 µM (WNK2(h)): 2.53%
- inhibition at 10 µM (MARK3(h)): 2.14%
- inhibition at 10 µM (WEE1(h)): -10.9%
- inhibition at 10 µM (GRK3(h)): 3.53%
- inhibition at 10 µM (PKR(h)): 3.56%

SMILES: CC(C)C[C@@H](NC(=O)C1(C(F)(F)F)CCCCC1)C(=O)Nc1nnc(Cc2ccc(C#N)cc2)s1 [Compound 21, N-[(1R)-1-[[5-[(4-Cyanophenyl)methyl]-1,3,4-thiadiazol-2-yl]carbamoyl]-3-methyl-butyl]-1-(trifluoromethyl)cyclohexanecarboxamide]
- inhibition at 10 µM (EphA1(h)): 4.63%
- inhibition at 10 µM (Estrogen Erα): -6%
- inhibition at 10 µM (SBK1(h)): 17.3%
- % Inh. [1]: 9%
- inhibition at 10 µM (Flt3(h)): 0.65%
- inhibition at 10 µM (mTOR FKBP12(h)): 2.46%
- inhibition at 10 µM (Progesterone PR-B): 5%
- inhibition at 10 µM (HIPK3(h)): 2.03%
- inhibition at 10 µM (ZAP-70(h)): 6.36%
- inhibition at 10 µM (CDK5/p25(h)): -2.47%
- inhibition at 10 µM (DCAMKL1(h)): 6.25%
- inhibition at 10 µM (NEK6(h)): -4.86%
- inhibition at 10 µM (MYO3B(h)): 2.08%
- inhibition at 10 µM (IRAK4(h)): -5.95%
- inhibition at 10 µM (Lck(h) activated): 0.11%
- inhibition at 10 µM (Endothelin ETB): 4%
- inhibition at 10 µM (FGFR4(h)): -10.4%
- inhibition at 10 µM (NUAK2(h)): 41%
- remaining activity at 1 µM (Cezanne): 102%
- remaining activity at 10 µM (Cezanne): 99%
- inhibition at 10 µM (Fer(h)): 14.1%
- inhibition at 10 µM (IKKepsilon(h)): -4.62%
- inhibition at 10 µM (STK32B(h)): 10.5%
- inhibition at 10 µM (CDK6/cyclinD3(h)): -12.4%
- inhibition at 10 µM [2]: 10%
- inhibition at 10 µM (CDK1/cyclinB(h)): 1.6%
- inhibition at 10 µM (ULK1(h)): 6.45%
- inhibition at 10 µM (NDR1(h)): 5.83%
- inhibition at 10 µM (MAP4K3(h)): 1.35%
- inhibition at 10 µM (Phosphodiesterase PDE5): 13%
- inhibition at 10 µM (EphB4(h)): -25.6%
- inhibition at 10 µM (PDHK4(h)): 6.24%
- remaining activity at 1 µM (UCHL3): 113%
- remaining activity at 10 µM (UCHL3): 101%
- inhibition at 10 µM (CK2alpha1(h)): 7.38%
- inhibition at 10 µM (Pim-3(h)): 2.4%
- inhibition at 10 µM (SLK(h)): 6.3%
- inhibition at 10 µM (DCAMKL3(h)): 4.88%
- inhibition at 10 µM (TSSK1(h)): 4.75%
- inhibition at 10 µM (WNK2(h)): -5.83%
- inhibition at 10 µM (MARK3(h)): 0.57%
- inhibition at 10 µM (WEE1(h)): -6.82%
- inhibition at 10 µM (GRK3(h)): 1.85%
- inhibition at 10 µM (PKR(h)): 6.22%
